The values that follow come from patent publication US20150197480A9 (Academia Sinica, priority 2013, published 2015).

The chains behind the UniProt entries cited, without tags or fusion partners. Residues count along the entry.
UniProt P43220, 24-463 limits assumed: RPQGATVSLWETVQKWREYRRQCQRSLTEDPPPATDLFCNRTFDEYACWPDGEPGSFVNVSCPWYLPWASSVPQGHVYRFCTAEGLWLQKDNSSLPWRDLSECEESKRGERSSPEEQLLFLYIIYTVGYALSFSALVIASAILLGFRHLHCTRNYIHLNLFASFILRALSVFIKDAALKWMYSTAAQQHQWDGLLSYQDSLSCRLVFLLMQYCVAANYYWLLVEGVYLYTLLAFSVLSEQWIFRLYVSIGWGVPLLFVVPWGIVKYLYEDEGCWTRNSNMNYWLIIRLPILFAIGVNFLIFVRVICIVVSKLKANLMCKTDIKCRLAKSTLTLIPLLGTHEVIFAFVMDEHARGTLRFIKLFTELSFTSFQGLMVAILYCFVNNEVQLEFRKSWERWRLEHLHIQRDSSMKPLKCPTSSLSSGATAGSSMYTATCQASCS
UniProt P32301, 22-463 limits assumed: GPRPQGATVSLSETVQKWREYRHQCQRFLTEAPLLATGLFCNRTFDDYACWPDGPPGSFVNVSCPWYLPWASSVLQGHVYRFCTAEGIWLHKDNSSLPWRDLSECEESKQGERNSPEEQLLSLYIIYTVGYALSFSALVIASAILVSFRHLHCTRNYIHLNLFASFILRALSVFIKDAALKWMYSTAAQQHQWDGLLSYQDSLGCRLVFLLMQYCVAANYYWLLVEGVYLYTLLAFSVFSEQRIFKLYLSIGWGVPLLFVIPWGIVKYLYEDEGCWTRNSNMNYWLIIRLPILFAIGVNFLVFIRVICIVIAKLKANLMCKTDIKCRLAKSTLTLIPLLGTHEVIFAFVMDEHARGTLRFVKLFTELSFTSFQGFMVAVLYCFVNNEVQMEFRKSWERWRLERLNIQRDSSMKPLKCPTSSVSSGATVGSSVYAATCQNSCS

In brackets after ≈: the same amount, converted by molar mass.

In assay [1] the test system is cAMP production elicited by GIP. To be noted: 0.025 mg/ml; FIG. 11.
For assay [2], the target named is GLP-1 receptor (Homo sapiens, UniProt P43220). Put plainly: Receptor endocytosis assay, U2OS cells co-expressing GLP-1 receptor and β-arrestin2:GFP. In kind it is cell-based.
The subject of assay [3] is cAMP production elicited by glucagon. As to conditions: 0.025 mg/ml; FIG. 11.
Assay [4] has as its target GLP-1 receptor (Rattus norvegicus, UniProt P32301).

Broadly, the IC50 is the concentration that gives 50% inhibition. Higher therefore signals lower potency. `C=C1CC[C@H]2C(C)(C)CCC[C@]2(C)[C@H]1C/C=C(/C=O)CC=O`: in assay [1], the “effect on cAMP production elicited by GIP” value was “do not affect”. The “positive modulation effect on GLP-1 elicited receptor endocytosis in the presence of exendin 9” value in assay [2] (FIG. 8, plus 1.8 mM of Exendin 9) is “diminished”. For the same compound, the “Efficacy of GLP-1 to elicit receptor endocytosis” value in assay [2] (Table 2, printed (100%), GLP-1 only or GLP-1 plus indicated compound) is recorded as 106.6%. In addition, the “effect on cAMP production elicited by glucagon” value in assay [3] is reported as “do not affect”. Further, in assay [4], the IC50 came to 0.3 µg/mL (≈ 0.992 µM).
